Earlier results as cited in publication PMC8356907 (Current analytical chemistry, 2021).

Target: T1, recombinant human caspase 3 (Homo sapiens, UniProt P42574)
T1 sequence (P42574 29-175 limits assumed): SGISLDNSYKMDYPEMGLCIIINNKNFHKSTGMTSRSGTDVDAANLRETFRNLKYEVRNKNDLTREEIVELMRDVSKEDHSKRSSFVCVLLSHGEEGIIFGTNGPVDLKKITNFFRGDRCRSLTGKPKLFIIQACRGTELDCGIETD
T1 sequence (P42574 176-277 limits assumed): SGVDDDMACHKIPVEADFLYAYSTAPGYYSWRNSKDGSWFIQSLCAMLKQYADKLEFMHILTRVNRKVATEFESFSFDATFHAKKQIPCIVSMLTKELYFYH
Conditions: read-out: Ki of Ac-DEVD-CHO for caspase 3; mean literature value; cited from earlier work

Ac-DEVD-CHO
Ki: 0.23 nM
